Test results published in ChEMBL document CHEMBL1149629, “Synthesis and biological activities of isogranulatimide analogues” (Bioorg Med Chem, 2007).

Target: T1, Serine/threonine-protein kinase Chk1 (Homo sapiens) (UniProt O14757)
T1 sequence (whole entry): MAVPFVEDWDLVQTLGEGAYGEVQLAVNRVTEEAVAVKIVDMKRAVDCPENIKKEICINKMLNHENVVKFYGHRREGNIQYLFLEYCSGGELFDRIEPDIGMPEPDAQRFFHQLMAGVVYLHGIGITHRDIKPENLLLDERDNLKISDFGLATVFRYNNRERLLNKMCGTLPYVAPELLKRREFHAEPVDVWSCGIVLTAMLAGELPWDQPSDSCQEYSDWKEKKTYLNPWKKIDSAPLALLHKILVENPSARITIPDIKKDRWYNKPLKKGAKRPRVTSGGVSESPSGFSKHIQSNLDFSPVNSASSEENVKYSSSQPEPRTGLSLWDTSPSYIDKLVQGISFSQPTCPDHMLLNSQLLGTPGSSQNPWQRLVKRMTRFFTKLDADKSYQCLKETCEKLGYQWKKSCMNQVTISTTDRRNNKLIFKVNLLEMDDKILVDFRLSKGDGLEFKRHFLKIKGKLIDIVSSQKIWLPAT
Test: Inhibition of human Chk1 at 10 uM
Outline: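 Chk1 from a commercial source or purified as GST–Chk1 from baculovirus-infected Sf9 cells. Assay based on a published method. Percent inhibition determined at 10 µM; IC50 determined for selected compounds.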

O=C1NC(=O)c2c1c1c3ccccc3[nH]c1n1cncc21 [ISOGRANULATIMIDE]
inhibition: 89.7%
